IC50 data for one molecule are collected here from ChEMBL document CHEMBL1151716 (J Med Chem, 2008).

SMILES strings stand for the structures. pIC50: −log10 of the molar value.

Broadly, the pIC50 is −log10 of the IC50, conventionally taken in molar units. Read a low pIC50 as a large IC50.

The assay relates to PBMC. Nature of the assay: Inhibition of LPS-induced TNFalpha production in human PBMC. The format is functional, cell-based.

`COc1ccc(C2CNC(=O)C2)cc1OC1CCCC1` (stereo unspecified) [ROLIPRAM] showed a pIC50 of 7.22.
